# Literature values, collected in patent US10627374B2, “LC-MS configuration for purification and detection of analytes having a broad range of hydrophobicites” (COHESIVE TECHNOLOGIES INC., priority 2010, dated 2020).
substance,measurement,setting,value
Norfentanyl,logP,Table 1,3.94
same,logP,Table 2,3.94

# Where two headings read alike, the source gives them in different places. Some compounds may have been tested in ways that are not shown here.
